Test results: patent publication US10233219 (TUFTS MEDICAL CENTER, dated 2019)

Assays:
[1] = target: T1, human CMKLR1 (chemerin receptor) (human, UniProt Q99788 1-373); assay: cell-based or functional assay
T1 sequence (looked up): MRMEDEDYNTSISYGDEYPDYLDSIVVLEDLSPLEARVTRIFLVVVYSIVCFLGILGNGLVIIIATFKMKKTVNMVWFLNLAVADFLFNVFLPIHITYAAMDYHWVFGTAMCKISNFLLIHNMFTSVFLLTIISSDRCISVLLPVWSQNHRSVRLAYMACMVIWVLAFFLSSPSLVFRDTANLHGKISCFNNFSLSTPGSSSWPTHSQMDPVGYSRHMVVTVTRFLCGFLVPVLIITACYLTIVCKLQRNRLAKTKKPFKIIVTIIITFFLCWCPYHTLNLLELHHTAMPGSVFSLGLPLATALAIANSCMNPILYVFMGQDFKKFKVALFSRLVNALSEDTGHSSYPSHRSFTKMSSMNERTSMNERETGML

[2] = target: T2, mouse CMKLR1 (chemerin receptor) (mouse, UniProt P97468 1-371); assay: cell-based or functional assay
T2 sequence (looked up): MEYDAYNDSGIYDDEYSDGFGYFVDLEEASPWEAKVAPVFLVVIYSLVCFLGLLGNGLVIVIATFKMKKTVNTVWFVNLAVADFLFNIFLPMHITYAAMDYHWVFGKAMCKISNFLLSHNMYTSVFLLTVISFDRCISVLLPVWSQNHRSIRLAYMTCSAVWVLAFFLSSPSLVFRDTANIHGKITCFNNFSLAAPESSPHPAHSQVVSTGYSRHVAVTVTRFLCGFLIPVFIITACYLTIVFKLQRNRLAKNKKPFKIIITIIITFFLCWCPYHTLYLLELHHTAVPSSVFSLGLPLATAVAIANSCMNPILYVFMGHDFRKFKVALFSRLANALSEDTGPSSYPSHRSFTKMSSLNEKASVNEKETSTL

B1: l-Chem 149-157 (lipidated C-terminal 9 amino acids of human chemerin) (peptide)
peptide: KGGYFPGQFAFS
modifications: N-terminus pegylated with PEG8-propionic acid, palmitic acid coupled to the N-terminal amine of the PEG
EC50 [1]: 4.3 nM
EC50 (nM), + wash [1]: 90.2 nM
pEC50 [1]: 8.35
EC50 [2]: 4 nM
EC50 (nM), + wash [2]: 42.9 nM
pEC50 [2]: 8.38
